SMILES strings stand for the structures. The entries are a selection whose mix differs from that of the whole data set. Potency and affinity values are given separately. Activity calls are given as the source filed them. How the calls were made is not given here.

The chains behind the UniProt entries cited, without tags or fusion partners.
UniProt P11142, whole entry, looked up: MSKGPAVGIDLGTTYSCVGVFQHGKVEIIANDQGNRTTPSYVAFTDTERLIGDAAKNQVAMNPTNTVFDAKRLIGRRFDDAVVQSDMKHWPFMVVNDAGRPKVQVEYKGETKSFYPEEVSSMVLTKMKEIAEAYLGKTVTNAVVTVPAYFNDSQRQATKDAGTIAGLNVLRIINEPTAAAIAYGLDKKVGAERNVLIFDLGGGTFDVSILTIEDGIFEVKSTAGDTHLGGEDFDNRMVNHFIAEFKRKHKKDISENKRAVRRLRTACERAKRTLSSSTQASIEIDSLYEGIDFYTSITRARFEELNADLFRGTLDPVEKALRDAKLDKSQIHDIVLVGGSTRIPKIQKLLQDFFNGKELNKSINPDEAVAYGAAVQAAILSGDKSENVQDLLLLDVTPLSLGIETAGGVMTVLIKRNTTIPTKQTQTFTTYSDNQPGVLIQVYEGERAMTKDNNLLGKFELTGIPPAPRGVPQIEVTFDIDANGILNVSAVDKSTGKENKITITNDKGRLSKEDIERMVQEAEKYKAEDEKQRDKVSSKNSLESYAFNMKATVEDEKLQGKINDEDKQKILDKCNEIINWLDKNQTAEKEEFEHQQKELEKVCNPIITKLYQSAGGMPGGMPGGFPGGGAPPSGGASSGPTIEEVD

For this assay, the target named is Heat shock cognate 71 kDa protein (Homo sapiens) (UniProt P11142). Nature of the assay: Hsc70 inhibitors, probe displacement, primary screen, biochemical, fluorescence polarization (AID 568). The note with it: mP, at 20 µM, stronger effect = higher value. For orientation: In fluorescence polarisation assays a small probe gives low polarisation when free and higher when bound to something large.
With `CCc1nc2c(n1)c1c(non1O)c1c2no[n+]1[O-]`, the displacement was inactive: -5%. On to `O=[N+]([O-])c1cccc2n[nH]nc12`, for which the displacement is inactive: -0.3%. On to `CC1CCN(C(=O)Oc2c(Cl)cc(Cl)c3cccnc23)CC1`, for which the displacement is inactive: -0.1%.

Turning to `Cc1c2non([O-])c-2c(C)[n+](=O)[n+]1[O-]`, the displacement is inactive: 2%. Regarding `Oc1ccccc1CNc1ccccn1`, the displacement was inactive: 1.9%. As for `CCOP(=O)(Nc1ccccc1)OCC`, the displacement was inactive: 2.7%. Turning to `COC(=O)c1cc2c(s1)N=C(c1ccccc1)N(C)P2(=O)N1CCOCC1` (configuration not stated), the displacement is inactive: 2.4%. As for `O=P1(Nc2nc3ccc(Cl)cc3s2)COc2ccccc2O1` (configuration not stated), the figure is inactive: -4.8%; as for `O=P(Nc1nccs1)(c1ccccc1)c1ccccc1`, inactive: 6.9%; as for `c1nnnn1CCn1cnnn1`, inactive: -5.2%. As for `O=C(OC1CN2CCC1CC2)c1cccc(Cl)c1` (configuration not stated), the displacement was inactive: 3.9%. As for `Cc1nn(-c2ccccc2)c2c1P(=O)(N1CCOCC1)N(C)C(c1ccccc1)=N2` (configuration not stated), the figure is inactive: 0.7%; as for `O=P1(Nc2ncccn2)COc2ccccc2OC1`, inactive: 2.4%. As for `O=P1(Nc2ccc(Br)cn2)COc2ccccc2OC1`, the figure is inactive: -0.7%; as for `Cc1ccc(OCC(=O)OC2CN3CCC2CC3)cc1` (configuration not stated), inactive: 0.9%; as for `O=P1(Nc2ccccn2)COc2ccccc2OC1`, inactive: 1.2%. As to `Clc1n[nH]nc1-c1nn[nH][15n]1`, the displacement was inactive: 6.6%.

For the compound `CC1(CBr)Cn2c(nc3ccccc3c2=O)S1` (configuration not stated), the displacement was inactive: -0.3%. As for `Cc1cccc(OCC(=O)OC2CN3CCC2CC3)c1` (configuration not stated), the figure is inactive: -2%; as for `O=P(Nc1nccs1)(c1ccccc1)c1nc2ccccc2s1` (configuration not stated), inactive: -1.1%. For `CCOP1(=S)c2c(C)nn(CCC#N)c2N=C(c2ccccc2F)N1C` (configuration not stated), the displacement is inactive: 0.7%.

For `CCOP1(=S)c2c(C)nn(CCC#N)c2N=C(c2ccc(F)cc2)N1C` (configuration not stated), the displacement was inactive: -0.3%. Next, `ClCCSc1nnc(-c2cccnc2)o1`: inactive: -1.1%; `O=C(OC1CN2CCC1CC2)C12CC3CC(CC(C3)C1)C2` (configuration not stated): inactive: -5.3%. Regarding `COP1(=S)c2c(C)nn(CCC#N)c2N=C(c2ccc(F)cc2)N1C` (configuration not stated), the displacement was inactive: 3.7%. As for `O=C(COc1ccccc1)OC1CN2CCC1CC2` (configuration not stated), the figure is inactive: 2.6%; as for `CCC(C)N(CC(C)C)C(=S)SC(NC(C)=O)C(Cl)(Cl)Cl` (configuration not stated), inactive: -1.8%.

These data come from PubChem BioAssay AID568 (Sanford-Burnham Center for Chemical Genomics, 2006).
